What all share (experiment): Glycosidase inhibition, spectrophotometric p-nitrophenyl glycoside assay
Assay [1] addresses α-Glucosidase from Saccharomyces cerevisiae (Saccharomyces cerevisiae, UniProt P53341).
Assay [2] concerns the target α-Galactosidase from green coffee beans (Coffea arabica, UniProt Q42656).
Assay [3] concerns the target T1, α-Mannosidase from jack bean (Canavalia ensiformis, UniProt C0HJB3).
T1 sequence (C0HJB3 1-981): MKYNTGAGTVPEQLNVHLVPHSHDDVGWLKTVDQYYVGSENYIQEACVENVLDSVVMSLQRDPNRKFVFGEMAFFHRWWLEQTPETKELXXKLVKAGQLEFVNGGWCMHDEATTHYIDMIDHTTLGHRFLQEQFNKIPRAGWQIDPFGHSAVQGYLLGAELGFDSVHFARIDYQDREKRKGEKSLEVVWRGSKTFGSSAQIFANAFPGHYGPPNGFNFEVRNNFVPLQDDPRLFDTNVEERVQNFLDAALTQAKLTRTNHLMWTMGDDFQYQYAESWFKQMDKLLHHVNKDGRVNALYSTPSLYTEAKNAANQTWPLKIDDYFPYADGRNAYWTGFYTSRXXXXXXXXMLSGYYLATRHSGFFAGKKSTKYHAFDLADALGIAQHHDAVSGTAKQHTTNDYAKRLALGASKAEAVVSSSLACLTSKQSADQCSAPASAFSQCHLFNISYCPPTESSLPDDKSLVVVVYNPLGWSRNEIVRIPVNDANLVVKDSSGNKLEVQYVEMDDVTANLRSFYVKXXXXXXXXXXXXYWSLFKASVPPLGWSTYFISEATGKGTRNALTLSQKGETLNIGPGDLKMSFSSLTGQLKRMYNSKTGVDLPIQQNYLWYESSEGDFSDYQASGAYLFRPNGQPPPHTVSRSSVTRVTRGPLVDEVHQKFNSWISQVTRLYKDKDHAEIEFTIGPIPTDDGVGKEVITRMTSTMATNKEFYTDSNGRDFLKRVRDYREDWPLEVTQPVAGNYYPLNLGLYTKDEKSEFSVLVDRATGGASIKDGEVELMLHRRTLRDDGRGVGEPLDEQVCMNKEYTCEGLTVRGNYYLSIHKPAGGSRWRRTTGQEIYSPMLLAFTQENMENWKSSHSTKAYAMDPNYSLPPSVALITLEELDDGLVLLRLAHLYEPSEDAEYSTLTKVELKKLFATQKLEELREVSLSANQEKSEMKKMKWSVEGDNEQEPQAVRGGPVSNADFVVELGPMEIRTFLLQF

The chains behind the UniProt entries cited, without tags or fusion partners. Where a name states a change or a piece, a line headed by the entry shows the natural chain unless it says otherwise. Residues count along the entry.
UniProt P53341: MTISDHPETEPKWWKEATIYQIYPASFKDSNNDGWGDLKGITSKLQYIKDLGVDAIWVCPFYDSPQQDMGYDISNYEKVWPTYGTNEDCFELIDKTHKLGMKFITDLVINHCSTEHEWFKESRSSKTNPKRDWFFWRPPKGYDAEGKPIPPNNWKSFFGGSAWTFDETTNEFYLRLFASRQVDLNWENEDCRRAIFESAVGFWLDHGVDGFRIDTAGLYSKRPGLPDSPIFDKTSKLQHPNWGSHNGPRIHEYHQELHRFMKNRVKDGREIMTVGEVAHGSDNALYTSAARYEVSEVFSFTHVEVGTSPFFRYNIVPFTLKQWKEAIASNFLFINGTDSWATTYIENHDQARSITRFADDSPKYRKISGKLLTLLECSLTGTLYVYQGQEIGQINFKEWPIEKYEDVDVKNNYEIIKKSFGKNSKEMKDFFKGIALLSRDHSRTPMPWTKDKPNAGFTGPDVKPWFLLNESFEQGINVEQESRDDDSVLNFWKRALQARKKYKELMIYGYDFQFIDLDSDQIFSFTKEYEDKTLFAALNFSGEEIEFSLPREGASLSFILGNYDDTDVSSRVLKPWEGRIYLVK
UniProt Q42656, 16-378: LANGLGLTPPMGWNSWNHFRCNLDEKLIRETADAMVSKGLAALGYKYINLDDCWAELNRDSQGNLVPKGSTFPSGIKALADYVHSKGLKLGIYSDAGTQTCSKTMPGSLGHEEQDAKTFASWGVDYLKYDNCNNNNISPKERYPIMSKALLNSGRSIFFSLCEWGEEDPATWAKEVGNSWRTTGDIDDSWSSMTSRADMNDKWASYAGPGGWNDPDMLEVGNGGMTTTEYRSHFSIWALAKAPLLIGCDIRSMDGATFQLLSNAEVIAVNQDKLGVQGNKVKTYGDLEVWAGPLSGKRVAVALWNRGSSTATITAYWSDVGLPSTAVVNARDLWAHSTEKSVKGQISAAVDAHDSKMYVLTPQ

pIC50: −log10 of the molar value.

The molecule `O=C1CC=C(CO)[C@@H](O)[C@H](O)[C@@H]1O` [Compound 4, (5R,6S,7S)-5,6,7-Trihydroxy-4-(hydroxymethyl)cyclohept-3-enone] gave a negative logarithm of the IC50 (pIC50) in assay [1] of 2.82.
On the same count and under the same terms, next, `OCC1=CC[C@H](O)[C@@H](O)[C@@H](O)[C@@H]1O` [Compound 5, (1S,2R,3S,4R)-5-(Hydroxymethyl)cyclohept-5-ene-1,2,3,4-tetraol]: 1.94.
Consider `OCC1=CC[C@@H](O)[C@@H](O)[C@@H](O)[C@@H]1O` [Compound 6, (1R,2R,3S,4R)-5-(Hydroxymethyl)cyclohept-5-ene-1,2,3,4-tetraol], for which the values for the pIC50 in assay [1] and in assay [2] were 2.54 and 2.89, respectively.
The molecule `C[C@H]1CC[C@@H](O)[C@@H](O)[C@@H](O)[C@@H]1O` [Compound 15, (1R,2R,3S,4R,5S)-5-Methylcycloheptane-1,2,3,4-tetraol] gave a pIC50 in assay [1] of 2.02.
Take `C[C@@H]1CC[C@@H](O)[C@@H](O)[C@@H](O)[C@@H]1O` [Compound 16, (1R,2R,3S,4R,5R)-5-Methylcycloheptane-1,2,3,4-tetraol]: the pIC50 is 2.43 in assay [1] and 2.37 in assay [3]. Besides, the inhibition at 1000 µM in assay [1] (pH 7.2, read-out: Percentage inhibition (%) at 1 mM concentration of the inhibitor) came to 24.3%.
